Reference: ChEMBL document CHEMBL5674886, “GLUT4 expression and glucose transport in human induced pluripotent stem cell-derived cardiomyocytes” (PLoS One, 2019)
Active and inactive are the calls of the source. No cut-off for these calls is given here.

Biological target: T1, Solute carrier family 2, facilitated glucose transporter member 1 (Homo sapiens) (UniProt P11166)
T1 sequence (whole entry): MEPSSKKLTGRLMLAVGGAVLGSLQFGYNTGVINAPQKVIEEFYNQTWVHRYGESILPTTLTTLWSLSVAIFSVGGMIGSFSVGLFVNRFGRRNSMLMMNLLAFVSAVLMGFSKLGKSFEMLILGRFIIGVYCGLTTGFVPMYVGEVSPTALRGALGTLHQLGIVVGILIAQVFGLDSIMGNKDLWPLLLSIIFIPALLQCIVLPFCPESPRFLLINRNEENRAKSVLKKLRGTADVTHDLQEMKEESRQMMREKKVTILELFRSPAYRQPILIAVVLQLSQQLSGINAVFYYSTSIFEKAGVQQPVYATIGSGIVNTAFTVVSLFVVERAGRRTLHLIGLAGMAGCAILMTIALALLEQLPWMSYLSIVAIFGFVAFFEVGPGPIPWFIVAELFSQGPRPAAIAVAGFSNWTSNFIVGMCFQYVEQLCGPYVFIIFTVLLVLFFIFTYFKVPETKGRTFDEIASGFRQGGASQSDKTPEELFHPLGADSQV
Experiment: Inhibition of GLUT1 in human iPSC-CM cells assessed as reduction in insulin-stimulated [3H]-2-deoxyglucose uptake at 2 uM incubated for 30 mins by [3H]-2-deoxyglucose uptake assay
Type: cell-based

inhibition: inactive
Structure (SMILES): Cc1c(NC(=O)c2cc(C(N)=O)nc3cc(F)ccc23)c(C(F)(F)F)nn1Cc1ccc(C#N)cc1 [BAY-876]
